Source: PMC12723449, “From Pharmacophore to Warhead: NAD^+‐Targeting Triazoles as Mechanism‐Based Sirtuin Inhibitors” (Angewandte Chemie (International Ed. in English), 2025)

Biological target: T1, SIRT2 (Homo sapiens, UniProt Q8IXJ6)
T1 construct: For assay experiments, strep-tagged human SIRT1134−747 and SIRT256-356 were expressed and purified as previously; Strep-tag; made in house; host or cells: E. coli BL21 Star (DE3)
T1 sequence (Q8IXJ6 56-356 limits assumed): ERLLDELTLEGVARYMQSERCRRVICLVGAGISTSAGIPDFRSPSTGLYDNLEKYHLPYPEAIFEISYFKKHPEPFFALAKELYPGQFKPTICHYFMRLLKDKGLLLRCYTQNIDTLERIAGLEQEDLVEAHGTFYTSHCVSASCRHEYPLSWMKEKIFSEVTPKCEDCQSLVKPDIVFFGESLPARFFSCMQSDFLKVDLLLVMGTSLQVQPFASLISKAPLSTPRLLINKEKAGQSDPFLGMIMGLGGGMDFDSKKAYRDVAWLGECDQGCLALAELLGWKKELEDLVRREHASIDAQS
Experiment: Differential scanning fluorimetry (DSF) / fluorescence thermal shift assay
Assay type: binding

Cc1cc(C)nc(SCC(=O)Nc2ncc(Cc3cccc(OCc4cn(Cc5ccc(OCCN6CCOCC6)cc5)nn4)c3)s2)n1 [Compound 2, reference compound]
ΔTm, difference in SIRT2 melting temperature upon NAD+ addition compared to NAD+ exclusion: 0.5 °C
